The values below come from ChEMBL document CHEMBL1126912 (J Med Chem, 1993).

Chains of the proteins cited; added tags and fusions are not shown. Lines headed by an entry give the natural chain unless they say otherwise; changes in a name come on top.
UniProt P08482: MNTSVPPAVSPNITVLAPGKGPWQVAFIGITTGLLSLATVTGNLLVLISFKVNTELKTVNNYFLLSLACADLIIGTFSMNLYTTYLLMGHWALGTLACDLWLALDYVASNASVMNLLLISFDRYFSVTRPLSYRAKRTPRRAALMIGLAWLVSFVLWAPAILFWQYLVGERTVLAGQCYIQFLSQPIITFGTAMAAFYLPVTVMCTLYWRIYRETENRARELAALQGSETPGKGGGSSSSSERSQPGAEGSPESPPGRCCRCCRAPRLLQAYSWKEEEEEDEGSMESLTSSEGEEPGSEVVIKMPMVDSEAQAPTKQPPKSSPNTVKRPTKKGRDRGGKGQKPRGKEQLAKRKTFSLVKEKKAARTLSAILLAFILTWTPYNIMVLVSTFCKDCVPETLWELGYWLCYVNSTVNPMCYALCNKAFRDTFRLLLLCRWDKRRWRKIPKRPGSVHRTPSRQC

Assay [1] relates to Muscarinic acetylcholine receptors M2 & M3 (Cavia porcellus). Put plainly: Selectivity ratio between atrium (M2) and ileum (M3) was determined.
In assay [2] the target is Muscarinic acetylcholine receptor M1 (Rattus norvegicus, UniProt P08482). Put plainly: Affinity constant measured against M1 muscarinic receptor in rat cortex.

`CN(CCCCCCCCN(C)CCCCCCNCC(=O)N1c2ccccc2C(=O)Nc2cccnc21)CCCCCCNCC(=O)N1c2ccccc2C(=O)Nc2cccnc21`: the Selectivity ratio in assay [1] worked out at 174.
The term Ki denotes the equilibrium dissociation constant of an inhibitor or competing ligand from its target. Molecule `COc1ccccc1CNCCCCCCNCCCCCCCCNCCCCCCNCc1ccccc1OC` [METHOCTRAMINE] showed a Ki in assay [2] of 37.2 nM.
